Structures are written as SMILES.

Holding throughout (type): cell-based
The target in assay [1] is T1, Methylated-DNA--protein-cysteine methyltransferase (Homo sapiens) (UniProt P16455).
T1 sequence (whole entry): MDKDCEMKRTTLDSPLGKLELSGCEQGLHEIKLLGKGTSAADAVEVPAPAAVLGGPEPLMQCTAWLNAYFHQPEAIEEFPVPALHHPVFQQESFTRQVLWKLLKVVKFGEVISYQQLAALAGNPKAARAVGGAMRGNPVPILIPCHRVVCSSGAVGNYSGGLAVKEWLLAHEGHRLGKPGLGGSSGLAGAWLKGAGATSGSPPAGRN
In words: Inhibition of AGT in human SF763 cells assessed as increase in dG-dC crosslinking at 0.1 mM incubated for 12 hrs by HPLC-ESI-MS/MS analysis relative to BCNU.

The target of assay [2] is T1, Methylated-DNA--protein-cysteine methyltransferase (Homo sapiens). The assay can be described thus: Inhibition of AGT in human SF763 cells assessed as increase in dG-dC crosslinking at 0.2 mM incubated for 12 hrs by HPLC-ESI-MS/MS analysis relative to BCNU.
Assay [3] has the same target. In words: Inhibition of AGT in human SF763 cells assessed as increase in dG-dC crosslinking at 0.4 mM incubated for 12 hrs by HPLC-ESI-MS/MS analysis relative to BCNU.
For assay [4] the target is unchanged. The assay can be described thus: Inhibition of AGT in human SF763 cells assessed as increase in dG-dC crosslinking at 0.6 mM incubated for 12 hrs by HPLC-ESI-MS/MS analysis relative to BCNU.
The target is the same in assay [5]. The assay can be described thus: Inhibition of AGT in human SF763 cells assessed as increase in dG-dC crosslinking at 0.1 mM incubated for 12 hrs by HPLC-ESI-MS/MS analysis relative to ACNU.
For assay [6] the target is unchanged. The assay can be described thus: Inhibition of AGT in human SF763 cells assessed as increase in dG-dC crosslinking at 0.2 mM incubated for 12 hrs by HPLC-ESI-MS/MS analysis relative to ACNU.
Assay [7] shares this target. In words: Inhibition of AGT in human SF763 cells assessed as increase in dG-dC crosslinking at 0.4 mM incubated for 12 hrs by HPLC-ESI-MS/MS analysis relative to ACNU.
The target is the same in assay [8]. In words: Inhibition of AGT in human SF763 cells assessed as increase in dG-dC crosslinking at 0.6 mM incubated for 12 hrs by HPLC-ESI-MS/MS analysis relative to ACNU.
Assay [9] has the same target. In words: Inhibition of AGT in human SF767 cells assessed as increase in dG-dC crosslinking at 0.1 to 0.6 mM incubated for 12 hrs by HPLC-ESI-MS/MS analysis relative to BCNU.
For assay [10] the target is unchanged. In words: Inhibition of AGT in human SF767 cells assessed as increase in dG-dC crosslinking at 0.1 to 0.6 mM incubated for 12 hrs by HPLC-ESI-MS/MS analysis relative to ACNU.
In assay [11] the test system is SF-126. The assay can be described thus: Binding affinity to DNA in AGT-deficient human SF126 cells assessed as increase in dG-dC crosslinking at 0.1 to 0.6 mM incubated for 12 hrs by HPLC-ESI-MS/MS analysis relative to BCNU.
Assay [12] deals with SF-126. The assay can be described thus: Binding affinity to DNA in AGT-deficient human SF126 cells assessed as increase in dG-dC crosslinking at 0.1 to 0.6 mM incubated for 12 hrs by HPLC-ESI-MS/MS analysis relative to ACNU.

Regarding `Nc1nc(OCc2ccccc2)c2ncn(CCNC(=O)N(CCCl)N=O)c2n1`, the fold change (FC) in assay [1] came out at 43; in assay [2] it was 38; in assay [3], 28; in assay [4], 19; in [5] it was 23; in assay [6], 20. Moreover, the fold change (FC) in assay [7] was 20; in [8], 13; in [9], 7 to 14; in [10], 5 to 11; with SF-126 [11] it was 3 to 9; in the assay with SF-126 [12] it was 2 to 6.

The values above are taken from ChEMBL document CHEMBL3877330, “Synthesis and Antitumor Activity Evaluation of a Novel Combi-nitrosourea Prodrug: BGCNU” (ACS Med Chem Lett, 2017).
